Assays:
Nociceptin receptor [1] = target: T1, Nociceptin receptor (Homo sapiens, UniProt P41146); assay: Binding affinity towards human opioid receptor like 1 was determined by using [3H]nociceptin as radioligand expressed in Chinese hamster ovary (CHO) cells
Mu-type opioid receptor = Mu-type opioid receptor (Homo sapiens, UniProt P35372); assay: Binding affinity towards human opioid receptor mu 1 was determined by using [3H]diprenorphine as radioligand expressed in Chinese hamster ovary (CHO) cells
Nociceptin receptor [2] = target: T1, Nociceptin receptor; assay: Inhibitory concentration measured by cellular decreases in forskolin stimulated cAMP in CHO cells stably transfected with hORL1 receptor

By UniProt entry, the sequences of proteins in these tests, tags left out.
UniProt P41146, whole entry: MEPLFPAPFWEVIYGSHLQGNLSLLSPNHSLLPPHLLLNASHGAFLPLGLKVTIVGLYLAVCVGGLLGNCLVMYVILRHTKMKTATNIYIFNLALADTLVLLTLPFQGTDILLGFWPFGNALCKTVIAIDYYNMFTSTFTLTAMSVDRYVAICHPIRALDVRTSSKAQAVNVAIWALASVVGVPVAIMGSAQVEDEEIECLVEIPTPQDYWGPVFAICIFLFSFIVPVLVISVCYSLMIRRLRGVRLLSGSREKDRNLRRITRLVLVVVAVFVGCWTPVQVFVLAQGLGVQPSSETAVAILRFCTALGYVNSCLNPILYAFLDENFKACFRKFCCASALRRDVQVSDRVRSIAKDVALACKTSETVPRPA
UniProt P35372, whole entry: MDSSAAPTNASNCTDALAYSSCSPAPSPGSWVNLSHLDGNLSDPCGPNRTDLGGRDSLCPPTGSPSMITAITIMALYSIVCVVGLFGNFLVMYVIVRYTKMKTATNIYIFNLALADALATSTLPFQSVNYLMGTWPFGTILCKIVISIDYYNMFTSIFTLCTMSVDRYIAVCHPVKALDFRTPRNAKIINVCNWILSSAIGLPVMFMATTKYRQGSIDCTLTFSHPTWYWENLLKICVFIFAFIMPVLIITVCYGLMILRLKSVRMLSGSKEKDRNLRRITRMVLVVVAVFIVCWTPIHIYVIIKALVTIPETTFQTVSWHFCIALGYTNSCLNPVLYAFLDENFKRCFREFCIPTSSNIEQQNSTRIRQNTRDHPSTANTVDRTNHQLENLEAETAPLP

Structure (SMILES) | Ki (Nociceptin receptor [1]) [nM] | Ki (Mu-type opioid receptor) [nM] | IC50 (Nociceptin receptor [2]) [nM]
CCCC(Oc1cc(C)ccc1Cl)C(O)CN1CCC(n2c(=O)[nH]c3ccccc32)CC1 (stereo not given) | 20 | 27 | 1060
CC(C)C(CCN1CCC(n2c(O)nc3ccccc32)CC1)Oc1ccccc1C(F)(F)F (stereo not given) | 24 | 24 | 1730
CCc1ccccc1OC(CCN1CCC(n2c(=O)[nH]c3ccccc32)CC1)C(C)C (stereo not given) | 37 | 23 | –
Cc1ccc(Cl)c(OC(CCN2CCC(n3c(O)nc4ccccc43)CC2)c2ccccc2)c1 (stereo not given) | 8.3 | 16.7 | 240
CC(C)c1ccccc1OC(CCN1CCC(n2c(=O)[nH]c3ccccc32)CC1)C(C)C (stereo not given) | 113 | 20 | –
Cc1ccccc1OC(CCN1CCC(n2c(O)nc3ccccc32)CC1)C(C)C (stereo not given) | 42 | 21 | –

Reference: ChEMBL document CHEMBL1144273, “Synthesis and SAR studies of 3-phenoxypropyl piperidine analogues as ORL1 (NOP) receptor agonists” (Bioorg Med Chem Lett, 2005)
